Data published in patent US6414005B1, “Heterocyclic compounds having nos inhibitory activities” (Chugai Seiyaku Kabushiki Kaisha, priority 1997, dated 2002).

Biological target: T1, eNOS (type 3) (Bos taurus, UniProt P29473)
T1 construct: Cow pulmonary arterial endothelium cells (CPAE) were cultured in a MEM medium containing 20% FBS; endogenous in cells; host or cells: CPAE (cow pulmonary arterial endothelium cells), detergent extract, 100,000 x g supernatant
Assay: NOS activity, conversion of L-[3H]arginine to L-[3H]citrulline, crude enzyme of eNOS
Assay type: biochemical
Conditions: crude enzyme from cow pulmonary arterial endothelium cells (CPAE); 100 nM L-[3H]arginine, 37° C., 10 min

With `N=C(NCCC[C@H](N)C(=O)O)N[N+](=O)[O-]` [L-NA, N^G-nitro-L-arginine] the IC50 was 68.2 nM.
